# Measurements from patent US20040176294A1, “Use of thyroid-stimulating hormone to induce lipolysis” (priority 2003, published 2004).
# Legend:
# [1] = test system: male ob/ob mice; test: Chronic treatment of ob/ob mice: adipose tissue depot mass; type: in vivo; conditions: after 4 weeks of treatment, n=4
# Protocol: (§1) 11-week old male ob/ob mice were individually caged and given a standard lab chow (4% fat) with free access to food and water. Animals were assigned to a treatment group (n=7-8, average weight 54.3+/−0.3 g per group), kept on a 12 hour dark cycle (6 PM to 6 AM), and injected each day between 7 and 9 AM. Chow consumed by each animal was weighed twice weekly. All animals received treatments IP with an injection volume of 0.1 ml. TSH was administered at 267 μg/kg, and the H3-AR agonist CL 316,243 at 0.75 mg/kg. Thyroid hormone (T4) was administered at 1.5 μg/mouse for 4 days, reduced to 1 [μg/mouse for 10 days, and returned to 1.5 μg/mouse for the next 14 days. The vehicle controls received sterile saline. TSH was obtained from Genzyme Pharmaceuticals, (Thyrogen®, catalog number 36778; Genzyme Corporation, Cambridge, Mass.), CL316,243 from Sigma Biochemicals, and T4 obtained from Calbiochem, Inc. All blood draws were performed by retro-orbital puncture under isoflurane anesthesia.
# Four animals from each group were analyzed for evaluation of changes in adipose tissue depot mass after 4 weeks of treatment. Following sacrifice, brown scapular fat (IBAT) and intra-abdominal fat were dissected and the tissues weighed. […] Elevated thyroid hormone levels are known to act to stimulate]BAT. […] Mesangial fat is white adipose tissue and is only readily visualized and dissected in obese mice. […]
# [2] = test system: male ob/ob mice; test: Chronic treatment of ob/ob mice: serum lipid analysis; type: in vivo; conditions: 5 weeks of treatment, fasted 4 hours
# Protocol: as §1
# The study set used for the IPGTT was treated an additional 7 days before sacrifice (total treatment time of 5 weeks). Subject animals were fasted for 4 hours at the beginning of the light cycle, and serum was obtained at sacrifice under isoflurane anesthesia. Triglyceride and total cholesterol levels were determined with the Cholestech LDX blood analyzer (Cholestech Corporation, Hayward Calif.). […]
# [3] = test system: male ob/ob mice; test: Acute stimulation of lipolysis in vivo (serum glycerol and FFA); conditions: for change from baseline in serum FFA / change from baseline in serum glycerol: TSH 300 μg/kg, overnight fast, SEM
# Protocol: TSH, the β3-adrenoreceptor agonist CL 316,243 (CL), and saline vehicle were examined for stimulation of lipolysis in mice following an overnight fast. Mice (n=7-8/group) were bled immediately before IP injection of TSH (300 μg/kg), CL (1 mg/kg), or vehicle, and blood sampled by retro orbital draws at 2 and 4 hours post-injection. Lipolysis was assessed as the change in serum glycerol or FFA compared to baseline. […] TSH administration stimulated increased serum glycerol levels at 2 and 4 hours, compared to the vehicle controls (148+/−23, (p=. 09) and 165+/−15 μg/ml (p<. 001) versus 80+/−29 and −62+/−14). TSH increased serum FFA 1,477+/−219 (p<. 001) and 1506+/−94 (p<. 001) at 2 and 4 hours compared to vehicle values −20+/−77 and ˜466+/−67, respectively (all errors are standard error of the mean).
# C57BL/6 male ob/ob mice, age 10 weeks, were grouped to normalize weight (n=7-8 for each treatment; average group weight=37.8 g+/−0.4 g). Mice were housed individually for 18 hours prior to treatment, at which time food was withdrawn, with free access to water given. At approximately 8 a.m., the subjects were anesthetized with halothane and blood samples taken by retro-orbital eye bleeds. The blood was allowed to clot, and the serum was separated by centrifugation and frozen for later analysis. Test substances were administered by IP injection in a volume of 0.1 ml, and the animals replaced in their cages for 2 hours with free access to water. At 2 hours, the mice were sacrificed and blood drawn by cardiac puncture.
# For measuring free fatty acids in serum, the method previously described for measuring free fatty acids in conditioned medium was followed, with the following modifications. Wako reagents A and B were reconstituted to 2× the recommended concentration. 75 μl of Wako reagent A were added to 5 μl of oleic acid standard plus 5 μl of water. 75 μl of Wako reagent A were added to 5 μl of serum plus 5 μl of methanol (to mirror the oleic acid standard conditions). The 96-well plates were incubated at 37° C. for 10 minutes. 150 μl of Wako reagent B were added to each well. The 96-well plates were incubated at 37° C. for 10 minutes. The 96-well plates were allowed to sit at room temperature for 5 minutes. The 96-well plates were centrifuged in a Beckman Coulter Allegra 6R centrifuge at 3250×g for 5 minutes to remove air bubbles. The absorbance at 530 nm was measured on the Wallac Victor2 Multilabel counter.
# For measuring glycerol in serum, the method previously described for measuring glycerol in conditioned medium was followed, with the modifications described below.
# Sigma reagent A was reconstituted to 0.5× the recommended concentration. 200 μl of Sigma reagent A were added to 10 μl of glycerol standard. 200 μl of Sigma reagent A were added to 5 μl of serum plus 5 μl of water. The 96-well plates were incubated for 15 minutes at room temperature. The 96-well plates were centrifuged in a Beckman Coulter Allegra 6R centrifuge at 3250×g for 5 minutes to remove air bubbles. The absorbance at 530 nm was measured on the Wallac Victor2 Multilabel counter.
# [4] = test system: male ob/ob mice; test: Chronic treatment of ob/ob mice: intraperitoneal glucose tolerance test (IPGTT); type: in vivo; conditions: 4 weeks of treatment
# Protocol: as §1
# Following 4 weeks of daily treatment as described above, mice (n=4/group) were fasted for four hours immediately following the beginning of the light cycle, and a blood sample obtained before IP injection of a glucose solution (1.5 g/kg body weight). Blood samples were obtained at 20, 40, and 120 minutes following injection to evaluate changes in serum glucose and insulin. Glucose concentrations were determined with a Freestyle blood glucose monitor (Therasense Corp.), and insulin concentrations were determined with a commercial ELISA kit (Alpco Diagnostics, Windham N. H.).
substance,measurement,setting,value
"TSH: ~30 kDa glycoprotein of two non-covalently linked alpha and beta subunits; Thyrogen, Genzyme Corporation",brown scapular fat (IBAT) mass,[1],1.25 ± 0.13 g
same,mesangial white fat depot weight,[1],1.11 ± 0.03 g
same,serum triglyceride,[2],80 ± 10 mg/dL
same,total cholesterol,[2],124 ± 16 mg/dL
same,serum FFA compared with β3-AR agonist,"[3]; 4-hour time point, TSH 300 μg/kg vs CL 316,243 1 mg/kg",significant increases over the P3-AR agonist
same,change from baseline in serum FFA,[3]; 2 hours post IP injection,"1,477+/−219 μg/ml"
same,change from baseline in serum glycerol,[3]; 2 hours post IP injection,148 ± 23 µg/mL
same,change from baseline in serum FFA,[3]; 4 hours post IP injection,1506 ± 94 µg/mL
same,change from baseline in serum glycerol,[3]; 4 hours post IP injection,165 ± 15 µg/mL
same,baseline blood glucose,"[4]; fasted four hours, n=4",114 ± 7 mg/dL
same,insulin sensitivity and glucose clearance versus vehicle,[4]; IPGTT glucose 1.5 g/kg,exhibited increased insulin sensitivity and increased clearance of the glucose load
same,serum glucose at 120 minutes post glucose injection,[4]; IPGTT glucose 1.5 g/kg,361 ± 37 mg/dL
